From ChEMBL document CHEMBL1154010, “Aziridine alkaloids as potential therapeutic agents” (Eur J Med Chem, 2009) come the findings set out here.

Molecules are shown by their SMILES.

This series is described as follows: Dissociation constant of the compound.

Molecule `C1CN1` came in with a pKa of 7.98.

A word on the pKa: it is the negative logarithm of the acid dissociation constant. A high value points to a group that holds its proton tightly.
